Results published in paper PMC6026870, “Selective induction of cancer cell death by VDAC1‐based peptides and their potential use in cancer therapy” (Molecular Oncology, 2018).

Legend:
[1] = tested on: DU‐145; type: cell-based
Procedure: (§1) Leukemia cells, U‐937, MEC‐1 cells (4 × 10^5 or 8 × 10^5 cells/sample, respectively), as well as other leukemia or suspension cell lines, were incubated in 200 μL serum‐free medium with various concentrations of the peptide for 90 min at 23–25 °C, collected by centrifugation (500 g, 5 min), washed with PBS, and analyzed for cell death. Adherent cells (6 × 10^5 mL^−1 at 70–80% confluence) were incubated with the peptide of interest in 500 μL serum‐free recommended culture medium for 3–6 h at 37 °C and 5% CO2. The cells were then trypsinized, centrifuged (1500 g, 5 min), washed with PBS, and analyzed for the desired activity. Following peptide treatment, cells were subjected to cell death analysis. Propidium iodide (PI) staining was performed by addition of PI (6.25 μg·mL^−1) to the cells and immediate analysis by the EC800 Flow cytometer Analyzer–Eclipse or the FACS caliber (Becton‐Dickinson, San Jose, CA, USA) and BD […] PRO software (BD Biosciences, San Jose, CA, USA).
(§2) Forty‐one cancerous and five noncancerous cell lines were used in this study to examine the cell‐killing activity of the VDAC1‐based peptides Antp‐LP4, Tf‐LP4, Tf‐D‐LP4, R‐Tf‐D‐LP4, N‐Ter‐Antp, and others (Figs 1, 2, 3 and Tables 1, 2, 3). For each line, cells were incubated with different peptide concentrations, and cell death was determined by PI staining and FACS analysis (Figs 1, 2, 3). In addition, for each cell line, the concentration of the peptide inducing 50% cell death (EC50) was determined (Tables 1, 2, 3).

[2] = tested on: PC‐3; type: cell-based; details: PC‐3 (prostate cancer cells, Fig. 2), 6 h, PI/FACS
Procedure: as §1, §2

[3] = tested on: U‐87MG; type: cell-based; details: 6 h
Procedure: as §1, §2

[4] = tested on: PANC1; type: cell-based; details: 6 h
Procedure: as §1, §2

[5] = Peptide stability on storage, read out as cell death activity; type: physicochemical; details: 10 µM final concentration, PI and FACS; control cells 3%; cell line not printed (Fig. S3D,E)
Procedure: Purified HK-I (13 µg/ml) was pre-incubated with the indicated concentrations of Tf-D-LP4 (●) or R-Tf-D-LP4 (○) and assayed for HK activity as described in Materials and Methods. Change in absorbance at 340 nm (NADH production) was spectrophotometrically measured following addition of 1 mM ATP, and 0.05 unit/ml glucose-6-phosphate dehydrogenase. C. Tf-D-LP4 and R-Tf-D-LP4 solubility. The peptides were dissolved to a final concentration of 5 mM in 5% DMSO and diluted to 1.1 mM in HBSS. Peptide absorbance in the supernatant was measured at 280 nm following centrifugation at 12,000g before and after 75 min incubation at 24 °C. D, E. Tf-D-LP4 and R-Tf-D-LP4 (0.5 mM in 5% DMSO) were incubated at -20 °C (○), 4 °C (●) or 24 °C (▲) and at the indicated time, aliquots (10 µM, final concentration) were assayed for cell death as described in Materials and Methods. Cell death was analyzed using PI and FACS analysis. In control cells, cell death was 3%, while peptide treatment led to levels of cell death over 90%.

Compound	EC50 in killing prostate cancer cells ([1]; DU‐145 (prostate cancer cells, Fig. 2), 6 h, PI/FACS)	fold more effective in inducing cell death than the same peptide composed of L‐amino acids ([1]; DU‐145, 6 h, PI/FACS (Fig. 2C vs D))	EC50 in killing prostate cancer cells [2]	EC50 [3]	EC50 [4]	cell death on peptide treatment [5]
CC[C@@H](C)[C@@H](NC(=O)[C@@H](CCCCN)NC(=O)[C@H](NC(=O)[C@@H](CCC(N)=O)NC(=O)[C@H](N)CCCNC(=N)N)[C@H](C)CC)C(=O)N[C@H](Cc1c[nH]c2ccccc12)C(=O)N[C@H](Cc1ccccc1)C(=O)N[C@H](CCC(N)=O)C(=O)N[C@H](CC(N)=O)C(=O)N[C@H](CCCNC(=N)N)C(=O)N[C@H](CCCNC(=N)N)C(=O)N[C@H](CCSC)C(=O)N[C@H](CCCCN)C(=O)N[C@H](Cc1c[nH]c2ccccc12)C(=O)N[C@H](CCCCN)C(=O)N[C@H](CCCCN)C(=O)N[C@H](CO)C(=O)N[C@H](Cc1c[nH]c2ccccc12)C(=O)N[C@@H](C(=O)N[C@H](Cc1c[nH]c2ccccc12)C(=O)N[C@H](CCC(=O)O)C(=O)N[C@H](CCCCN)C(=O)N[C@H](CCCCN)C(=O)N[C@H](CC(C)C)C(=O)N[C@H](CCC(=O)O)C(=O)N[C@@H](C(=O)N[C@H](C)C(=O)N[C@@H](C(=O)N[C@H](CC(N)=O)C(=O)N[C@H](CC(C)C)C(=O)N[C@H](C)C(=O)N[C@H](Cc1c[nH]c2ccccc12)C(=O)N[C@@H](C(=O)N[C@H](C)C(=O)NCC(=O)N[C@H](CC(N)=O)C(=O)N[C@H](CO)C(=O)N[C@H](CC(N)=O)C(=O)N[C@H](CCCCN)C(=O)N[C@H](Cc1c[nH]c2ccccc12)C(=O)N[C@@H](C(=O)N[C@H](Cc1c[nH]c2ccccc12)C(=O)N[C@H](CCCCN)C(=O)O)[C@H](C)O)[C@H](C)O)C(C)C)[C@H](C)O)[C@H](C)O [D‐Antp‐LP4]	submicromolar range	about fourfold	submicromolar range	6.5 µM	–	–
CC[C@H](C)[C@H](NC(=O)[C@H](C)NC(=O)[C@@H](N)Cc1c[nH]cn1)C(=O)N[C@@H](Cc1ccc(O)cc1)C(=O)N1CCC[C@H]1C(=O)N[C@@H](CCCNC(=N)N)C(=O)N[C@@H](Cc1c[nH]cn1)C(=O)N[C@H](CO)C(=O)N[C@H](Cc1c[nH]c2ccccc12)C(=O)N[C@@H](C(=O)N[C@H](Cc1c[nH]c2ccccc12)C(=O)N[C@H](CCC(=O)O)C(=O)N[C@H](CCCCN)C(=O)N[C@H](CCCCN)C(=O)N[C@H](CC(C)C)C(=O)N[C@H](CCC(=O)O)C(=O)N[C@@H](C(=O)N[C@H](C)C(=O)N[C@@H](C(=O)N[C@H](CC(N)=O)C(=O)N[C@H](CC(C)C)C(=O)N[C@H](C)C(=O)N[C@H](Cc1c[nH]c2ccccc12)C(=O)N[C@@H](C(=O)N[C@H](C)C(=O)NCC(=O)N[C@H](CC(N)=O)C(=O)N[C@H](CO)C(=O)N[C@H](CC(N)=O)C(=O)N[C@H](CCCCN)C(=O)N[C@H](Cc1c[nH]c2ccccc12)C(=O)N[C@@H](C(=O)N[C@H](Cc1c[nH]c2ccccc12)C(=O)N[C@H](CCCCN)C(=O)O)[C@H](C)O)[C@H](C)O)C(C)C)[C@H](C)O)[C@H](C)O [Tf‐D‐LP4]	–	–	–	–	2.7 ± 0.9 µM	over 90%
